Data on two compounds can be found in US10167295B2 (priority 2013, dated 2019).

By UniProt entry, the sequences of proteins in these tests, tags left out.
UniProt P35372, whole entry: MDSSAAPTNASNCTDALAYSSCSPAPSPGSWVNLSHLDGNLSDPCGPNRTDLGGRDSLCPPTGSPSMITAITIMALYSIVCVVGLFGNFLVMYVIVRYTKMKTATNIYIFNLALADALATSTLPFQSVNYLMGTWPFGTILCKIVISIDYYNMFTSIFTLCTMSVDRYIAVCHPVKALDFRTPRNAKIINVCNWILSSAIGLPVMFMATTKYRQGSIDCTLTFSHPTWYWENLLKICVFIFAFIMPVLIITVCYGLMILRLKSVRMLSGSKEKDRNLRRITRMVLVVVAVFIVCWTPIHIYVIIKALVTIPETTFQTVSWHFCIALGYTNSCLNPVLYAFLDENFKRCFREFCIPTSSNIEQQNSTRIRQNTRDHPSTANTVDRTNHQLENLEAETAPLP
UniProt P41143, whole entry: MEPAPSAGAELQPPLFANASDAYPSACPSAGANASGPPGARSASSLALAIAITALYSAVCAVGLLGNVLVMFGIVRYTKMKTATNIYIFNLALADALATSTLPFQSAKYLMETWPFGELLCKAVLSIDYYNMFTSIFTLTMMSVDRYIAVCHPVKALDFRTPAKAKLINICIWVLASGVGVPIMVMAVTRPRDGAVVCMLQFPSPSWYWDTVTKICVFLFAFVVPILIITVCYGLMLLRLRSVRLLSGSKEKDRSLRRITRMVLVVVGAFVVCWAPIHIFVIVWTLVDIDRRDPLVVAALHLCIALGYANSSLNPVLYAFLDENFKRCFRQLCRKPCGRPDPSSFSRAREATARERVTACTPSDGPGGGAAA
UniProt P41146, whole entry: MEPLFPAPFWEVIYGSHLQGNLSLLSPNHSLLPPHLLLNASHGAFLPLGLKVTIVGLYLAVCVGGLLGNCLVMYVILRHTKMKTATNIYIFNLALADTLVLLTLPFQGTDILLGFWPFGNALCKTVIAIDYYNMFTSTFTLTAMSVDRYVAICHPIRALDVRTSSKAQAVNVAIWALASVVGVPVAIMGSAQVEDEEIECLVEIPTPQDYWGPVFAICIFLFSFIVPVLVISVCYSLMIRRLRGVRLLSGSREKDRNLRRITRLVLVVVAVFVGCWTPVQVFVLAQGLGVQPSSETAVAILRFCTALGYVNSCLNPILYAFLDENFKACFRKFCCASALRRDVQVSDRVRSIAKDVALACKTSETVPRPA

SMILES strings stand for the structures. Like-named read-outs stand apart in the source and are kept apart here. Only a part of the results on these compounds is given; other tests are left out.

The target in experiment [1] is T1, KOR (Homo sapiens, UniProt P41145). As to the kind of experiment: Radioligand competition binding, Ki (PDSP). To be noted: read-out: KOR Ki.
For experiment [2], the target named is MOR (Homo sapiens, UniProt P35372). As to the kind of experiment: Primary binding (PDSP). The conditions noted are these: for MOR mean % inhibition: 10 μM, N = 4 determinations, negative = stimulation of binding; for MOR: Table 7, rounded values of Table 4.
The target in experiment [3] is T1, KOR. As to the kind of experiment: Primary binding (PDSP). To be noted: for KOR mean % inhibition: 10 μM, N = 4 determinations, negative = stimulation of binding; for KOR: Table 7, rounded values of Table 4.
Experiment [4] deals with DOR (Homo sapiens, UniProt P41143). As to the kind of experiment: Primary binding (PDSP). To be noted: for DOR mean % inhibition: 10 μM, N = 4 determinations, negative = stimulation of binding; for DOR: Table 7, rounded values of Table 4.
The target in experiment [5] is NOP (Homo sapiens, UniProt P41146). As to the kind of experiment: Functional NOP agonism, Tango agonist assay. The class given is cell-based. The conditions noted are these: for NOP Tango Agonist: Table 7, values of Table 6; for NOP Tango Agonist, percent efficacy relative to cognate agonist: test compound at 10 micromolar.
Where [6] appears, read: Cheng-Prusoff from best fit IC50.

As usually defined, the Ki is a measure of affinity in units of concentration, obtained from inhibition or displacement. Turning to `CN(C(=O)C1CCCN1Cc1ccccc1)[C@H]1CCCC[C@@H]1N1CCCC1` (some centres unmarked), the Ki in experiment [1] (setting [6]) amounted to 146 nM. The Ki in experiment [1] (Table 7, values of Table 5) was found to be 146 nM. Besides, in experiment [2], the “MOR mean % inhibition” value was 14.1% and the MOR came to 14. In experiment [3], the “KOR mean % inhibition” value is listed as 68.8% and the KOR is 69. In addition, in experiment [4], the “DOR mean % inhibition” value was −2.84% and the DOR is recorded as −3. Besides, in experiment [5], the “NOP Tango Agonist” value is on record as −4.7 and the “NOP Tango Agonist, percent efficacy relative to cognate agonist” value was −4.7%.
Consider `O=C(N[C@H]1CCCC[C@@H]1N1CCCC1)C1CCCN1Cc1ccccc1` (some centres unmarked), for which the Ki in experiment [1] (setting [6]) turned out to be 204 nM. Moreover, in experiment [1] (Table 7, values of Table 5), the Ki worked out at 204 nM. In experiment [2], the “MOR mean % inhibition” value is 2.7% and the MOR was 3. Further, in experiment [3], the “KOR mean % inhibition” value stood at 61% and the KOR is 61. Further, in experiment [4], the “DOR mean % inhibition” value was found to be 31.7472% and the DOR came out at 32. In addition, in experiment [5], the “NOP Tango Agonist” value is on record as −3.6 and the “NOP Tango Agonist, percent efficacy relative to cognate agonist” value is on record as −3.6%.
